The record followed here is patent US10449168B2 (The University of Toledo, priority 2015, dated 2019).

One experiment addresses T1, maltose-binding protein-human aspartate N-acetyltransferase (MBP-ANAT) fusion enzyme (Homo sapiens, UniProt Q8N9F0).
T1 sequence (Q8N9F0 1-302): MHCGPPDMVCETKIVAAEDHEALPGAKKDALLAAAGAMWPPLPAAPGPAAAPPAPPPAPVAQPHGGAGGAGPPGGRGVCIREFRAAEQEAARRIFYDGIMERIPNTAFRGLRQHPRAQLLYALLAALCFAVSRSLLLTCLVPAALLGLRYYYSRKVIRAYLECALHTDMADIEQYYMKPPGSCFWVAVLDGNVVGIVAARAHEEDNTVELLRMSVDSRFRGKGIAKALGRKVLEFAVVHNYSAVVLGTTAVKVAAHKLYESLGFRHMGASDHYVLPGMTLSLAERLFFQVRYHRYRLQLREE
Put plainly: ANAT DTNB-based activity assay / compound library screening.
Conditions: not given
As for `Cc1ccc(CN(CCC(=O)O)Cc2ccc(C(=O)O)c(C(=O)O)c2)cc1` [Compound 45], the “inhibition / affinity for ANAT (in words)” value (shortened to “inhibition / affinity”) is on record as “very poor inhibitors”.

For `O=C(O)CCN(Cc1ccc(C(=O)O)c(C(=O)O)c1)Cc1ccccc1Br` [Compound 53], the “inhibition / affinity” value is “better inhibitors”.

Turning to `Cc1ccccc1CN(CCC(=O)O)Cc1ccc(C(=O)O)c(C(=O)O)c1` [Compound 43], the “inhibition / affinity” value was “did not show improved inhibition”.

Regarding `O=C(O)CCN(Cc1ccc(C(=O)O)c(C(=O)O)c1)Cc1ccc2ccccc2c1` [Compound 49], the Ki was determined as 34 µM and the “inhibition / affinity” value was “great enhancement in inhibition”.

For `O=C(O)CN(CCN1CCOCC1)Cc1ccc(C(=O)O)c(C(=O)O)c1` [Compound 16, N-(ethylmorpholino)-N-carboxymethyl-3,4-dicarboxybenzylamine], the “inhibition / affinity” value was “weak inhibitors with no enhancement in the Ki values”.

Turning to `CC(C)(C)c1ccc(CN(CCC(=O)O)Cc2ccc(C(=O)O)c(C(=O)O)c2)cc1` [Compound 46], the “inhibition / affinity” value was “very poor inhibitors”.

In the case of `O=C(O)c1ccc(CN[C@@H](CO)C(=O)O)cc1C(=O)O` [Compound 6, N-((2-hydroxymethyl)carboxymethyl)-3,4-dicarboxybenzylamine], the “inhibition / affinity” value is given as “did not show any inhibition”.

In the case of “N-acetonitrile, N-carboxymethyl-3,4-dicarboxybenzylamine [Compound 12]”, the “inhibition / affinity” value was “did not confer any inhibitory properties”.

For the molecule `O=C(O)CN(Cc1ccc(C(=O)O)c(C(=O)O)c1)c1ccc(-c2ccccc2)cc1` [Compound 17, N-(4-biphenyl)-N-carboxymethyl-3,4-dicarboxybenzylamine], the “inhibition / affinity” value is on record as “weak inhibitors with no enhancement in the Ki values”.

For the molecule `O=C(O)CCN(Cc1ccc(C(F)(F)F)cc1)Cc1ccc(C(=O)O)c(C(=O)O)c1` [Compound 41], the “inhibition / affinity” value was “better inhibitors”.

`O=C(O)CN(Cc1ccc(C(=O)O)c(C(=O)O)c1)Cc1cccc2ccccc12` [Compound 14]: the Ki turned out to be 115 µM.

`O=C(O)CN(Cc1ccc(C(F)(F)F)cc1)Cc1ccc(C(=O)O)c(C(=O)O)c1` [Compound 26, N-(4-trifluoromethylbenzyl)-N-carboxymethyl-3,4-dicarboxybenzylamine]: the “inhibition / affinity” value is “weaker inhibitor”.

As to `O=C(O)CCN(Cc1ccc(C(=O)O)c(C(=O)O)c1)Cc1ccccc1C(F)(F)F` [Compound 40], the “inhibition / affinity” value is given as “better inhibitors”.

`O=C(O)CN(Cc1ccc(C(=O)O)cc1)Cc1ccc(C(=O)O)c(C(=O)O)c1` [Compound 31, N-(4-carboxybenzyl)-N-carboxymethyl-3,4-dicarboxybenzylamine] gave a Ki of 104 µM.

`Cc1cccc(CN(CCC(=O)O)Cc2ccc(C(=O)O)c(C(=O)O)c2)c1` [Compound 44]: the “inhibition / affinity” value is reported as “did not show improved inhibition”.

Turning to `O=C(O)CCN(Cc1ccc(C(F)(C(F)(F)F)C(F)(F)F)cc1)Cc1ccc(C(=O)O)c(C(=O)O)c1` [Compound 47], the “inhibition / affinity” value is “very poor inhibitors”.

On to `O=C(O)CCN(Cc1ccc(Br)cc1)Cc1ccc(C(=O)O)c(C(=O)O)c1` [Compound 54], for which the “inhibition / affinity” value was “better inhibitors”.

For the molecule `CN(CC(=O)O)Cc1ccc(C(=O)O)c(C(=O)O)c1` [Compound 10, N-methyl, N-carboxymethyl-3,4-dicarboxybenzylamine], the “inhibition / affinity” value is listed as “did not confer any inhibitory properties”.

For `CC(C)(C)c1ccc(CN(CC(=O)O)Cc2ccc(C(=O)O)c(C(=O)O)c2)cc1` [Compound 33, N-(4-t-butylbenzyl)-N-carboxymethyl-3,4-dicarboxybenzylamine], the “inhibition / affinity” value is on record as “weak inhibitors with no enhancement in the Ki values”.

The molecule `O=C(O)C[C@H](NC(=O)CCl)C(=O)O` [reference compound] yielded an inhibition constant (Ki) of 200 µM.

As to `CN(CC(=O)O)Cc1cccc(C(=O)O)c1C(=O)O` [Compound 9, N-methyl, N-carboxymethyl-2,3-dicarboxybenzylamine], the inhibition constant Ki amounted to 1200 µM.

For the molecule `O=C(O)CN(Cc1ccc(C(F)(C(F)(F)F)C(F)(F)F)cc1)Cc1ccc(C(=O)O)c(C(=O)O)c1` [Compound 34, N-(4-(2-perfluoropropyl))-N-carboxymethyl-3,4-dicarboxybenzylamine], the “inhibition / affinity” value is recorded as “weak inhibitors with no enhancement in the Ki values”.

With `O=C(O)CN(Cc1ccc(C(=O)O)c(C(=O)O)c1)Cc1ccccc1C(F)(F)F` [Compound 24, N-(2-trifluoromethylbenzyl)-N-carboxymethyl-3,4-dicarboxybenzylamine], the “inhibition / affinity” value was “some improvement in the Ki values”.

Turning to `O=C(O)CN(Cc1ccccc1)Cc1ccc(C(=O)O)c(C(=O)O)c1` [Compound 13, N-benzyl, N-carboxymethyl-3,4-dicarboxybenzylamine], the Ki amounted to 420 µM.

With `O=C(O)CCN(Cc1ccc(C(=O)O)cc1)Cc1ccc(C(=O)O)c(C(=O)O)c1` [Compound 50], the affinity corresponds to a Ki of 29 µM and the “improvement in the affinity for ANAT” value was 100 fold.

For `O=C(O)CN(Cc1cccc(C(F)(F)F)c1)Cc1ccc(C(=O)O)c(C(=O)O)c1` [Compound 25, N-(3-trifluoromethylbenzyl)-N-carboxymethyl-3,4-dicarboxybenzylamine], the “inhibition / affinity” value is “some improvement in the Ki values”.

Turning to `O=C(O)CN(Cc1ccc(C(=O)O)c(C(=O)O)c1)Cc1ccccc1Br` [Compound 18, N-(2-bromobenzyl)-N-carboxymethyl-3,4-dicarboxybenzylamine], the “inhibition / affinity” value is “some improvement in the Ki values”.

In the case of `O=C(O)CN(Cc1cccc(Br)c1)Cc1ccc(C(=O)O)c(C(=O)O)c1` [Compound 19, N-(3-bromobenzyl)-N-carboxymethyl-3,4-dicarboxybenzylamine], the “inhibition / affinity” value was “some improvement in the Ki values”.

On to `O=C(O)CN(Cc1ccc(C(=O)O)c(C(=O)O)c1)c1ccc2ccccc2c1` [Compound 15, N-(2-naphthyl)-N-carboxymethyl-3,4-dicarboxybenzylamine], for which the “inhibition / affinity” value is “did not improve the inhibition”.

In the case of `C=CCN(CC(=O)O)Cc1ccc(C(=O)O)c(C(=O)O)c1` [Compound 11, N-allyl, N-carboxymethyl-3,4-dicarboxybenzylamine], the Ki was determined as 1200 µM.

For the molecule `O=C(O)CN(Cc1ccc(OC(F)F)cc1)Cc1ccc(C(=O)O)c(C(=O)O)c1` [Compound 30, N-(4-difluoromethoxybenzyl)-N-carboxymethyl-3,4-dicarboxybenzylamine], the “inhibition / affinity” value is reported as “did not result in the intended improvement in the affinity”.

On to `O=C(O)CCNCc1ccc(C(=O)O)c(C(=O)O)c1` [Compound 4, N-carboxyethyl-3,4-dicarboxybenzylamine], for which the inhibition constant Ki came out at 1700 µM and the “inhibition / affinity” value is recorded as “modest inhibitory properties”.

For `C[C@H](NCc1ccc(C(=O)O)c(C(=O)O)c1)C(=O)O` [Compound 5, N-((2-methyl)carboxymethyl)-3,4-dicarboxybenzylamine], the “inhibition / affinity” value is “did not show any inhibition”.

Still in this experiment, the particulars now being: read-out: Ki for ANAT.
Turning to `CC(=O)N(CC(=O)O)Cc1ccc(C(=O)O)c(C(=O)O)c1` [Compound 37, N-acetal-N-carboxymethyl-3,4-dicarboxybenzylamine], the inhibition constant (Ki) was 710 µM.

In general, Ki refers to the dissociation constant of the complex between target and ligand, obtained from inhibition or displacement.
